Results from patent US20160022665A2, “Pharmaceutical Compositions and Administrations Thereof” (Vertex Pharmaceuticals Incorporated, priority 2012, published 2016).

By UniProt entry, the sequences of proteins in these tests, tags left out. Chains listed by the source or under a name are the forms on record and can include a tag or linker.
UniProt P13569, with tags, fused parts or gaps DEL508-508: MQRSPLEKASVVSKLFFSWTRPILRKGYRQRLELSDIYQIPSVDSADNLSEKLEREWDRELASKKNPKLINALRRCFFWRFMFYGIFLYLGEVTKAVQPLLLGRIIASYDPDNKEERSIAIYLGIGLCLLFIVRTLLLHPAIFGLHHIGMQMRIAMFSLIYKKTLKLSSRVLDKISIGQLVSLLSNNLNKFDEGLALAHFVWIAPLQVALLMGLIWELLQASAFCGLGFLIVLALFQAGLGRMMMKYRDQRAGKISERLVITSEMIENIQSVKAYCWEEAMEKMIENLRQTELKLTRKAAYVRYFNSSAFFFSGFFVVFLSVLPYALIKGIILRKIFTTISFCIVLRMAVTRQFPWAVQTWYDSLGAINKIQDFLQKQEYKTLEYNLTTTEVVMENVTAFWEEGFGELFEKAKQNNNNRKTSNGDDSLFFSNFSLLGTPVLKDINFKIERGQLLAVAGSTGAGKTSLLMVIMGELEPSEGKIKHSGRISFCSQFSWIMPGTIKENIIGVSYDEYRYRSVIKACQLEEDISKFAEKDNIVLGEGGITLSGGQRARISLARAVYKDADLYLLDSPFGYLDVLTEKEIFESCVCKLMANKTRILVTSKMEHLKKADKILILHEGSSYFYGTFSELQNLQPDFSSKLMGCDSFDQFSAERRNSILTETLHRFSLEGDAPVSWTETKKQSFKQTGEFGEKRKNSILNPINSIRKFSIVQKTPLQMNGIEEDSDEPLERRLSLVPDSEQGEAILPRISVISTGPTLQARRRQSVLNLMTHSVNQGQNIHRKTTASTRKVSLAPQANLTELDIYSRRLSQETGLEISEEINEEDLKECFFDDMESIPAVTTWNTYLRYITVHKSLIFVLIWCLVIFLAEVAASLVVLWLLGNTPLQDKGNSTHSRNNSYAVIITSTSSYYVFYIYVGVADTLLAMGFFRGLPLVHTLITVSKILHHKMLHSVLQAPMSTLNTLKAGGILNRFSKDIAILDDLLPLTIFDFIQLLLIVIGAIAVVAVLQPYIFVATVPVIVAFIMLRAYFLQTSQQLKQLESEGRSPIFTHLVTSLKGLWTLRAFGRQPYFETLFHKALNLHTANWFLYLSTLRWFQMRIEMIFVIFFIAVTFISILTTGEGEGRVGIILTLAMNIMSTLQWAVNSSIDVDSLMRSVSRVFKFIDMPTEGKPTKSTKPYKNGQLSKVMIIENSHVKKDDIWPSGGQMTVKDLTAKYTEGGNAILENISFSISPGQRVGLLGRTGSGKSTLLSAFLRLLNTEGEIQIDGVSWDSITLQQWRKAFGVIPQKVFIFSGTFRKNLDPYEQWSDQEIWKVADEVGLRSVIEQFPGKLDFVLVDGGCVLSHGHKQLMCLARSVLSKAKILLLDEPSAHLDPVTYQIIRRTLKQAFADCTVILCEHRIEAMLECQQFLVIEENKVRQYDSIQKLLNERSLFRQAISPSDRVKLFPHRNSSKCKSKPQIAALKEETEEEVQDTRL

Target: ΔF508-CFTR (Homo sapiens, UniProt P13569, DEL508-508)
Experiment: Membrane potential optical assay (fluorescent voltage sensing dyes, FLIPR III), identification of potentiator compounds (Protocol 1)
Conditions: compounds of Formula II; 100% efficacy is the maximum response obtained with 4-methyl-2-(5-phenyl-1H-pyrazol-3-yl)phenol

CN(C)CC#Cc1cc(N2C3CCC2CC3)ccc1NC(=O)c1c[nH]c2cccc(C(F)(F)F)c2c1=O
% Efficacy: ++ (“++” if efficacy was calculated to be from 100% to 25%)

O=C(Nc1ccc(N2C3CCC2CC3)cc1C(F)(F)F)c1c[nH]c2cccc(C(F)(F)F)c2c1=O
% Efficacy: ++ (“++” if efficacy was calculated to be from 100% to 25%)
